ChEMBL document CHEMBL5365518, “Synthesis and Validation of the First Cell-Impermeable Hsp90α-Selective Inhibitors” (ACS Med Chem Lett, 2023)

Experiment: Selectivity index, ratio of IC50 for binding affinity to HSP90beta (unknown origin) to IC50 for binding affinity to HSP90alpha (unknown origin)

SMILES	Ratio IC50
Cc1ccc(Sc2cc(C(=O)N3Cc4ccc(OCCN(C)C)cc4C3)ccc2O)cc1C	113
Cc1ccc(Sc2cc(C(=O)N3Cc4ccc(OCCCN(C)C)cc4C3)ccc2O)cc1C	> 196
Cc1ccc(Sc2cc(C(=O)N3Cc4ccc(OCCC[N+](C)(C)C)cc4C3)ccc2O)cc1C.O=C([O-])C(F)(F)F	> 294
Cc1ccc(Sc2cc(C(=O)N3Cc4ccc(OCC[N+](C)(C)C)cc4C3)ccc2O)cc1C.O=C([O-])C(F)(F)F	> 153
